Consider three molecules from PubChem BioAssay (Tox21).

This is a selection; strong and weak results do not stand in their true shares. Inconclusive results are not listed. A call without a number means that no potency is given here. Activity calls are given as the source filed them. Unless noted, calls follow the shape of the dose curve; as a rule, active = well fitted curve in the direction sought with a large enough effect in the repeat runs; inconclusive = weak or mixed curves; inactive = no such curve, though single readings can be large; an effect the other way counts as inactive or inconclusive.

Assay [1] in a line: qHTS assay to identify small molecule antagonists of the estrogen related receptor signaling pathway with the pleiotropic PPARgamma coactivator (PGC) from Tox21 10K library (AID 1224841; call rule not given here; also: potency is read from the fitted curve at half-maximal effect; actives are mostly falling curves and most rising ones were filed inactive; nearly all actives have a fitted effect of over 50% in size). Particulars: PGC/ERR reporter cell line, ONE-Glo luciferase, 18 h. (qHTS replaces the single test concentration by a dilution series.)
Assay [2] can be described thus: qHTS assay to identify small molecule antagonists of the peroxisome proliferator-activated receptor gamma (PPARg) signaling pathway - cell viability counter screen (AID 743194). Also: nearly all actives have a fitted effect of over 55% in size. Particulars: PPARg-bla HEK293H viability, CellTiter-Glo luminescence, 17 h, co-treated with 50 nM rosiglitazone; series mostly up to 62.6 µM. The method in brief:
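PPARg-UAS-bla HEK293H cells were plated, rested 5 h at 37 C, then treated with compounds plus rosiglitazone (50 nM final) for 17 h at 37 C; viability was then read by CellTiter-Glo luminescence after 30 min at room temperature.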

Assay [3] is described as follows: qHTS assay to identify small molecule HDAC inhibitors - cell viability counter screen (AID 1259365). Also: nearly all actives have a fitted effect of over 50% in size. Particulars: HCT-116 viability, CellTiter-Glo ATP luminescence, 2 h; series mostly up to 92.4 µM. The gist of the method: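 After overnight seeding at 1,500 cells per well, wild-type HCT-116 cultures took up compounds in DMSO for 2hr at 37 C. Viable cell content came from luminescence with CellTiter-Glo.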

Assay [4] in a line: qHTS assay to identify small molecule agonists of the progesterone receptor (PR) signaling pathway - cell viability counter screen (AID 1346799; calls by dose curve; also: nearly all actives have a fitted effect of over 45% in size). Particulars: PR-UAS-bla HEK293T viability, CellTiter-Glo luminescence, 16 h; at 92.4 µM (top of the series). The gist of the method: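 Here, 3,000 PR-UAS-bla HEK293T cells per well were treated with compounds for 16 hr after a 6 hr preincubation at 37C and 5% CO2; cell viability is the CellTiter-Glo luminescence signal.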

Turning to `O=C(Cl)Oc1ccccc1`, the Potency in assay [1] is active: 54.5 µM. Take `ClP(Cl)c1ccccc1`: the Potency entry in assay [2] is “inactive”.

Regarding `COP(C)(=O)OC`, the Potency entry in assay [3] is “inactive”. Moreover, the activity change, negative = cytotoxicity in assay [4] is inactive: -4.76%.
